Measurements: IntAct's records for PubMed 35512704

B1: RAC-alpha serine/threonine-protein kinase (Homo sapiens), P31749 (parent)
chain: MSDVAIVKEGWLHKRGEYIKTWRPRYFLLKNDGTFIGYKERPQDVDQREAPLNNFSVAQCQLMKTERPRPNTFIIRCLQWTTVIERTFHVETPEEREEWTTAIQTVADGLKKQEEEEMDFRSGSPSDNSGAEEMEVSLAKPKHRVTMNEFEYLKLLGKGTFGKVILVKEKATGRYYAMKILKKEVIVAKDEVAHTLTENRVLQNSRHPFLTALKYSFQTHDRLCFVMEYANGGELFFHLSRERVFSEDRARFYGAEIVSALDYLHSEKNVVYRDLKLENLMLDKDGHIKITDFGLCKEGIKDGATMKTFCGTPEYLAPEVLEDNDYGRAVDWWGLGVVMYEMMCGRLPFYNQDHEKLFELILMEEIRFPRTLGPEAKSLLSGLLKKDPKQRLGGGSEDAKEIMQHRFFAGIVWQHVYEKKLSPPFKPQVTSETDTRYFDEEFTAQMITITPPDQDDSMECVDSERRPHFPQFSYSASGTA

Variants of: B1
Details: with mcl1_human MCL1

Variant	effect of a mutation on the interaction
MSDVAIVKEGWLHKRGKYIKTWRPRYFLLKNDGTFIGYKERPQDVDQREAPLNNFSVAQCQLMKTERPRPNTFIIRCLQWTTVIERTFHVETPEEREEWTTAIQTVADGLKKQEEEEMDFRSGSPSDNSGAEEMEVSLAKPKHRVTMNEFEYLKLLGKGTFGKVILVKEKATGRYYAMKILKKEVIVAKDEVAHTLTENRVLQNSRHPFLTALKYSFQTHDRLCFVMEYANGGELFFHLSRERVFSEDRARFYGAEIVSALDYLHSEKNVVYRDLKLENLMLDKDGHIKITDFGLCKEGIKDGATMKTFCGTPEYLAPEVLEDNDYGRAVDWWGLGVVMYEMMCGRLPFYNQDHEKLFELILMEEIRFPRTLGPEAKSLLSGLLKKDPKQRLGGGSEDAKEIMQHRFFAGIVWQHVYEKKLSPPFKPQVTSETDTRYFDEEFTAQMITITPPDQDDSMECVDSERRPHFPQFSYSASGTA [E17K]	causing an interaction

Variants of: B1
Details: with men1_human MEN1, O00255

Variant	effect of a mutation on the interaction
MSDVAIVKEGWLHKRGKYIKTWRPRYFLLKNDGTFIGYKERPQDVDQREAPLNNFSVAQCQLMKTERPRPNTFIIRCLQWTTVIERTFHVETPEEREEWTTAIQTVADGLKKQEEEEMDFRSGSPSDNSGAEEMEVSLAKPKHRVTMNEFEYLKLLGKGTFGKVILVKEKATGRYYAMKILKKEVIVAKDEVAHTLTENRVLQNSRHPFLTALKYSFQTHDRLCFVMEYANGGELFFHLSRERVFSEDRARFYGAEIVSALDYLHSEKNVVYRDLKLENLMLDKDGHIKITDFGLCKEGIKDGATMKTFCGTPEYLAPEVLEDNDYGRAVDWWGLGVVMYEMMCGRLPFYNQDHEKLFELILMEEIRFPRTLGPEAKSLLSGLLKKDPKQRLGGGSEDAKEIMQHRFFAGIVWQHVYEKKLSPPFKPQVTSETDTRYFDEEFTAQMITITPPDQDDSMECVDSERRPHFPQFSYSASGTA [E17K]	causing an interaction

Variants of: B1
Details: with mybb_human MYBL2, P10244

Variant	effect of a mutation on the interaction
MSDVAIVKEGWLHKRGKYIKTWRPRYFLLKNDGTFIGYKERPQDVDQREAPLNNFSVAQCQLMKTERPRPNTFIIRCLQWTTVIERTFHVETPEEREEWTTAIQTVADGLKKQEEEEMDFRSGSPSDNSGAEEMEVSLAKPKHRVTMNEFEYLKLLGKGTFGKVILVKEKATGRYYAMKILKKEVIVAKDEVAHTLTENRVLQNSRHPFLTALKYSFQTHDRLCFVMEYANGGELFFHLSRERVFSEDRARFYGAEIVSALDYLHSEKNVVYRDLKLENLMLDKDGHIKITDFGLCKEGIKDGATMKTFCGTPEYLAPEVLEDNDYGRAVDWWGLGVVMYEMMCGRLPFYNQDHEKLFELILMEEIRFPRTLGPEAKSLLSGLLKKDPKQRLGGGSEDAKEIMQHRFFAGIVWQHVYEKKLSPPFKPQVTSETDTRYFDEEFTAQMITITPPDQDDSMECVDSERRPHFPQFSYSASGTA [E17K]	causing an interaction

Variants of: B1
Details: with myc_human MYC

Variant	effect of a mutation on the interaction
MSDVAIVKEGWLHKRGKYIKTWRPRYFLLKNDGTFIGYKERPQDVDQREAPLNNFSVAQCQLMKTERPRPNTFIIRCLQWTTVIERTFHVETPEEREEWTTAIQTVADGLKKQEEEEMDFRSGSPSDNSGAEEMEVSLAKPKHRVTMNEFEYLKLLGKGTFGKVILVKEKATGRYYAMKILKKEVIVAKDEVAHTLTENRVLQNSRHPFLTALKYSFQTHDRLCFVMEYANGGELFFHLSRERVFSEDRARFYGAEIVSALDYLHSEKNVVYRDLKLENLMLDKDGHIKITDFGLCKEGIKDGATMKTFCGTPEYLAPEVLEDNDYGRAVDWWGLGVVMYEMMCGRLPFYNQDHEKLFELILMEEIRFPRTLGPEAKSLLSGLLKKDPKQRLGGGSEDAKEIMQHRFFAGIVWQHVYEKKLSPPFKPQVTSETDTRYFDEEFTAQMITITPPDQDDSMECVDSERRPHFPQFSYSASGTA [E17K]	causing an interaction

Variants of: B1
Details: with mycn_human MYCN

Variant	effect of a mutation on the interaction
MSDVAIVKEGWLHKRGKYIKTWRPRYFLLKNDGTFIGYKERPQDVDQREAPLNNFSVAQCQLMKTERPRPNTFIIRCLQWTTVIERTFHVETPEEREEWTTAIQTVADGLKKQEEEEMDFRSGSPSDNSGAEEMEVSLAKPKHRVTMNEFEYLKLLGKGTFGKVILVKEKATGRYYAMKILKKEVIVAKDEVAHTLTENRVLQNSRHPFLTALKYSFQTHDRLCFVMEYANGGELFFHLSRERVFSEDRARFYGAEIVSALDYLHSEKNVVYRDLKLENLMLDKDGHIKITDFGLCKEGIKDGATMKTFCGTPEYLAPEVLEDNDYGRAVDWWGLGVVMYEMMCGRLPFYNQDHEKLFELILMEEIRFPRTLGPEAKSLLSGLLKKDPKQRLGGGSEDAKEIMQHRFFAGIVWQHVYEKKLSPPFKPQVTSETDTRYFDEEFTAQMITITPPDQDDSMECVDSERRPHFPQFSYSASGTA [E17K]	causing an interaction

Variants of: B1
Details: with merl_human NF2, P35240

Variant	effect of a mutation on the interaction
MSDVAIVKEGWLHKRGKYIKTWRPRYFLLKNDGTFIGYKERPQDVDQREAPLNNFSVAQCQLMKTERPRPNTFIIRCLQWTTVIERTFHVETPEEREEWTTAIQTVADGLKKQEEEEMDFRSGSPSDNSGAEEMEVSLAKPKHRVTMNEFEYLKLLGKGTFGKVILVKEKATGRYYAMKILKKEVIVAKDEVAHTLTENRVLQNSRHPFLTALKYSFQTHDRLCFVMEYANGGELFFHLSRERVFSEDRARFYGAEIVSALDYLHSEKNVVYRDLKLENLMLDKDGHIKITDFGLCKEGIKDGATMKTFCGTPEYLAPEVLEDNDYGRAVDWWGLGVVMYEMMCGRLPFYNQDHEKLFELILMEEIRFPRTLGPEAKSLLSGLLKKDPKQRLGGGSEDAKEIMQHRFFAGIVWQHVYEKKLSPPFKPQVTSETDTRYFDEEFTAQMITITPPDQDDSMECVDSERRPHFPQFSYSASGTA [E17K]	causing an interaction

Variants of: B1
Details: with ikba_human NFKBIA

Variant	effect of a mutation on the interaction
MSDVAIVKEGWLHKRGKYIKTWRPRYFLLKNDGTFIGYKERPQDVDQREAPLNNFSVAQCQLMKTERPRPNTFIIRCLQWTTVIERTFHVETPEEREEWTTAIQTVADGLKKQEEEEMDFRSGSPSDNSGAEEMEVSLAKPKHRVTMNEFEYLKLLGKGTFGKVILVKEKATGRYYAMKILKKEVIVAKDEVAHTLTENRVLQNSRHPFLTALKYSFQTHDRLCFVMEYANGGELFFHLSRERVFSEDRARFYGAEIVSALDYLHSEKNVVYRDLKLENLMLDKDGHIKITDFGLCKEGIKDGATMKTFCGTPEYLAPEVLEDNDYGRAVDWWGLGVVMYEMMCGRLPFYNQDHEKLFELILMEEIRFPRTLGPEAKSLLSGLLKKDPKQRLGGGSEDAKEIMQHRFFAGIVWQHVYEKKLSPPFKPQVTSETDTRYFDEEFTAQMITITPPDQDDSMECVDSERRPHFPQFSYSASGTA [E17K]	causing an interaction

Variants of: B1
Details: with notc2_human NOTCH2, Q04721

Variant	effect of a mutation on the interaction
MSDVAIVKEGWLHKRGKYIKTWRPRYFLLKNDGTFIGYKERPQDVDQREAPLNNFSVAQCQLMKTERPRPNTFIIRCLQWTTVIERTFHVETPEEREEWTTAIQTVADGLKKQEEEEMDFRSGSPSDNSGAEEMEVSLAKPKHRVTMNEFEYLKLLGKGTFGKVILVKEKATGRYYAMKILKKEVIVAKDEVAHTLTENRVLQNSRHPFLTALKYSFQTHDRLCFVMEYANGGELFFHLSRERVFSEDRARFYGAEIVSALDYLHSEKNVVYRDLKLENLMLDKDGHIKITDFGLCKEGIKDGATMKTFCGTPEYLAPEVLEDNDYGRAVDWWGLGVVMYEMMCGRLPFYNQDHEKLFELILMEEIRFPRTLGPEAKSLLSGLLKKDPKQRLGGGSEDAKEIMQHRFFAGIVWQHVYEKKLSPPFKPQVTSETDTRYFDEEFTAQMITITPPDQDDSMECVDSERRPHFPQFSYSASGTA [E17K]	causing an interaction
